From publication PMC5724754 (Cell reports, 2015)

T1: FLAG-CSN2 (human, UniProt P61201 1-443)
T1 sequence: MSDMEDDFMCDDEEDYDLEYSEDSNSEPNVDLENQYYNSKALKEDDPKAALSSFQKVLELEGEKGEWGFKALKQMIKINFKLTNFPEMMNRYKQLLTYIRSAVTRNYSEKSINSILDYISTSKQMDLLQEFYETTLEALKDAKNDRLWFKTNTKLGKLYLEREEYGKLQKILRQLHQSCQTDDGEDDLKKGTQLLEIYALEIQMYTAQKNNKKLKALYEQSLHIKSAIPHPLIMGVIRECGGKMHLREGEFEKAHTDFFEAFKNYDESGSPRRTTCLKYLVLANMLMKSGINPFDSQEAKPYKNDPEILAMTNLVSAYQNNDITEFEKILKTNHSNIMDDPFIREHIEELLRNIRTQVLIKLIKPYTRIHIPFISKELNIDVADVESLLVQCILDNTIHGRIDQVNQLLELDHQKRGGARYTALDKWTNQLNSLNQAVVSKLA


These binders were tested against T1, FLAG-CSN2 (assay: native MS).

binding result	Binder
binds	CSN6 (natural protein) MAAAAAAAAATNGTGGSSGMEVDAAVVPSVMACGVTGSVSVALHPLVILNISDHWIRMRSQEGRPVQVIGALIGKQEGRNIEVMNSFELLSHTVEEKIIIDKEYYYTKEEQFKQVFKELEFLGWYTTGGPPDPSDIHVHKQVCEIIESPLFLKLNPMTKHTDLPVSVFESVIDIINGEATMLFAELTYTLATEEAERIGVDHVARMTATGSGENSTVAEHLIAQHSAIKMLHSRVKLILEYVKASEAGEVPFNHEILREAYALCHCLPVLSTDKFKTDFYDQCNDVGLMAYLGTITKTCNTMNQFVNKFNVLYDRQGIGRRMRGLFF
binds	CSN7b (natural protein) MAGEQKPSSNLLEQFILLAKGTSGSALTALISQVLEAPGVYVFGELLELANVQELAEGANAAYLQLLNLFAYGTYPDYIANKESLPELSTAQQNKLKHLTIVSLASRMKCIPYSVLLKDLEMRNLRELEDLIIEAVYTDIIQGKLDQRNQLLEVDFCIGRDIRKKDINNIVKTLHEWCDGCEAVLLGIEQQVLRANQYKENHNRTQQQVEAEVTNIKKTLKATASSSAQEMEQQLAERECPPHAEQRQPTKKMSKVKGLVSSRH
binds	CSN8 (natural protein) MPVAVMAESAFSFKKLLDQCENQELEAPGGIATPPVYGQLLALYLLHNDMNNARYLWKRIPPAIKSANSELGGIWSVGQRIWQRDFPGIYTTINAHQWSETVQPIMEALRDATRRRAFALVSQAYTSIIADDFAAFVGLPVEEAVKGILEQGWQADSTTRMVLPRKPVAGALDVSFNKFIPLSEPAPVPPIPNEQQLARLTDYVAFLEN
